# “And” between values parts separate entries of the source, which are not always exact repeats. Identical values can stand only once. Only a part is listed here, and it is no random draw. The source made the active and inactive calls. The calls were made as follows: active = hit-call score of the fitted dose curve at least 0.9, where 1 is the maximum; inactive = score below 0.9.
# Test: ATG_PPRE_CIS: Attagene CIS-FACTORIAL HepG2 Assay for human Peroxisome Proliferator-activated Response Element (PPRE) (AID 2282958)
# Conditions: HepG2 PPRE cis-element reporter, Attagene transcription factor profiling; actives raise or lower the signal
Compound,outcome,AC50
CC(Cc1ccc(OCC(=O)O)cc1)NCC(O)c1csc(C(F)(F)F)n1 (stereo unspecified),inactive,
CCOP(=S)(OCC)SCn1c(=O)oc2cc(Cl)ccc21,,active: 20.7 µM
Cc1cccc(N)c1N,,active: 52.9 µM
O=C(O)c1cc(Oc2ccc(C(F)(F)F)cc2Cl)ccc1[N+](=O)[O-],,active: 30.1 µM
ClCCCCCCCl,inactive,
C[C@@H](Oc1ccc(Cl)cc1Cl)C(=O)O,,active: 42.7 µM
CCCCCCCCBr,inactive,
O=P1(NCCCl)OCCCN1CCCl (stereo unspecified),inactive,
C=CC#N,inactive,
Cc1cc(-c2ccc(N)c(C)c2)ccc1N,inactive,
CCOCN(C(=O)CCl)c1c(C)cccc1CC,inactive,
CC(c1ccc(O)cc1)c1ccc(O)cc1,,active: 100 µM
Nc1ccc(-c2ccc(N)c(Cl)c2)cc1Cl,,active: 12.5 µM
CC1CN1P(=O)(N1CC1C)N1CC1C (stereo unspecified),inactive,
S=c1[nH]c2ccccc2[nH]1,inactive,
COc1ccccc1N,inactive,
C/C(=N\NC(=O)Nc1cc(F)cc(F)c1)c1ncccc1C(=O)O,inactive,
O=[N+]([O-])c1ccc(O)c([N+](=O)[O-])c1,inactive,

Compound,outcome,AC50
Nc1ccc([N+](=O)[O-])cc1,inactive,
CCNc1nc(Cl)nc(NCC)n1,inactive,
CCC(C)(C)c1ccc(O)cc1,inactive,
CS(=O)(=O)NC(=O)c1cc(Oc2ccc(C(F)(F)F)cc2Cl)ccc1[N+](=O)[O-],inactive,
CC(C)(C)C(O)C(Oc1ccc(Cl)cc1)n1cncn1 (stereo unspecified),inactive,
O=[N+]([O-])/N=C1\NCCN1Cc1ccc(Cl)nc1,inactive,
N#Cc1ccccn1,inactive,
COC(C)(C)CCC[C@H](C)C/C=C/C(C)=C/C(=O)OC(C)C,inactive,
O=S1OCC2C(CO1)C1(Cl)C(Cl)=C(Cl)C2(Cl)C1(Cl)Cl (stereo unspecified),inactive,
Cc1ccc(N)cc1,inactive,
CC(=O)C=C(C)C,inactive,
C[C@H]1[C@H](c2ccc(Cl)cc2)SC(=O)N1C(=O)NC1CCCCC1,,active: 12.3 µM
CN1C[C@H](C(=O)N[C@]2(C)O[C@@]3(O)[C@@H]4CCCN4C(=O)[C@H](Cc4ccccc4)N3C2=O)C=C2c3cccc4[nH]cc(c34)C[C@H]21,,active: 14.1 µM
C#CC1(O)CCCCC1,inactive,
Oc1c(Cl)c(Cl)c(Cl)c(Cl)c1Cl,,active: 14.4 µM and active: 2.95 µM and active: 3.5 µM
O=[N+]([O-])c1ccccc1O,inactive,
Nc1ccc2ccccc2c1,inactive,
Cn1c(-c2ccccc2)cc(-c2ccccc2)[n+]1C,inactive,
